Laboratory results from patent publication US20230340011A1 (Asteroid Therapeutics, priority 2022, published 2023).

The chains behind the UniProt entries cited, without tags or fusion partners.
UniProt P55055, whole entry: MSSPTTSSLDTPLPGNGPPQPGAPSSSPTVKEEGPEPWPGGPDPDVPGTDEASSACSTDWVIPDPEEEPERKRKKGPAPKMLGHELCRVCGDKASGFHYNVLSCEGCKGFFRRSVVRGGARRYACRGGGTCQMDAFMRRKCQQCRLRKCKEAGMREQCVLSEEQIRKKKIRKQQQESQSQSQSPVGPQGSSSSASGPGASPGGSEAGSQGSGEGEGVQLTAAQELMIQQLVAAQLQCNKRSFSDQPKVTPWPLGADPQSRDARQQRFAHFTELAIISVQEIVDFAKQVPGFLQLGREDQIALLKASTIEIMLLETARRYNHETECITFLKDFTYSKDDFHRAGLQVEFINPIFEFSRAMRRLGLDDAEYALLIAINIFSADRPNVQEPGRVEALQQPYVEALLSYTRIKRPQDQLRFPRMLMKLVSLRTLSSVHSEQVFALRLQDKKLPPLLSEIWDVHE

Molecular target: LXRβ (Homo sapiens (Human), UniProt P55055)
Assay: In vitro assay LXRβ: PathHunter NHR CHO cells, LXRβ / Steroid Receptor Co-activator Peptide enzyme fragment complementation
Format: cell-based
Conditions: not given
Protocol: PathHunter NHR CHO cells stably transfected with tagged full-length human LXRβ and a nuclear fusion protein containing Steroid Receptor Co-activator Peptide (SRCP). The full-length human LXRβ was tagged with the ProLink™ component of the DiscoverX Enzyme Fragment Complementation (EFC) system and the SRCP domain is fused to the enzyme acceptor component (EA) expressed in the nucleus. Cells were seeded in a total volume of 20 μL into white walled, 384-well microplates and incubated at 37° C. overnight prior to testing. Assay media contained charcoal-dextran filtered serum to reduce the level of hormones present. Final assay vehicle concentration was 1%. […] Microplates were read following signal generation with a PerkinElmer Envision instrument for chemiluminescent signal detection.

SMILES	EC50
C[C@H](CCC(=O)N1CCNCC1)[C@H]1CC[C@H]2[C@@H]3CC=C4C[C@@H](O)CC[C@]4(C)[C@H]3CC[C@]12C [Example 2, (R)-4-((3S,8S,9S,10R,13R,14S,17R)-3-hydroxy-10,13-dimethyl-2,3,4,7,8,9,10,11,12,13,14,15,16,17-tetradecahydro-1H-cyclopenta[a]phenanthren-17-yl)-1-(piperazin-1-yl) pentan-1-one]	1000 to 10000 nM
CC(=O)N1CCN(C(=O)CC[C@@H](C)[C@H]2CC[C@H]3[C@@H]4CC=C5C[C@@H](O)CC[C@]5(C)[C@H]4CC[C@]23C)CC1 [Example 3, (R)-1-(4-acetylpiperazin-1-yl)-4-((3S,8S,9S,10R,13R,14S,17R)-3-hydroxy-10,13-dimethyl-2,3,4,7,8,9,10,11,12,13,14,15,16,17-tetradecahydro-1H-cyclopenta[a]phenanthren-17-yl)pentan-1-one]	> 10000 nM
C[C@H](CCC(=O)N1CCN(C(N)=O)CC1)[C@H]1CC[C@H]2[C@@H]3CC=C4C[C@@H](O)CC[C@]4(C)[C@H]3CC[C@]12C [Example 4, 4—((R)-4-((3S,8S,9S,10R,13R,14S,17R)-3-hydroxy-10,13-dimethyl-2,3,4,7,8,9,10,11,12,13,14,15,16,17-tetradecahydro-1H-cyclopenta[a]phenanthren-17-yl)pentanoyl)piperazine-1-carboxamide]	> 10000 nM
C[C@H](CCC(=O)N1CC[S+]([O-])CC1)[C@H]1CC[C@H]2[C@@H]3CC=C4C[C@@H](O)CC[C@]4(C)[C@H]3CC[C@]12C [Example 18, (R)-4-((3S,8S,9S,10R,13R,14S,17R)-3-hydroxy-10,13-dimethyl-2,3,4,7,8,9,10,11,12,13,14,15,16,17-tetradecahydro-1H-cyclopenta[a]phenanthren-17-yl)-1-(1-oxidothiomorpholino) pentan-1-one]	> 10000 nM
C[C@H](CCC(=O)N(C)OCCCC(F)(F)F)[C@H]1CC[C@H]2[C@@H]3CC=C4C[C@@H](O)CC[C@]4(C)[C@H]3CC[C@]12C [Example 32, (R)-4-((3S,8S,9S,10R,13R,14S,17R)-3-hydroxy-10,13-dimethyl-2,3,4,7,8,9,10,11,12,13,14,15,16,17-tetradecahydro-1H-cyclopenta[a]phenanthren-17-yl)-N-methyl-N-(4,4,4-trifluorobutoxy)pentanamide]	> 10000 nM
C[C@H](CCC(=O)N1CCCO1)[C@H]1CC[C@H]2[C@@H]3CC=C4C[C@@H](O)CC[C@]4(C)[C@H]3CC[C@]12C [Example 33, (R)-4-((3S,8S,9S,10R,13R,14S,17R)-3-hydroxy-10,13-dimethyl-2,3,4,7,8,9,10,11,12,13,14,15,16,17-tetradecahydro-1H-cyclopenta[a]phenanthren-17-yl)-1-(isoxazolidin-2-yl)pentan-1-one]	250 to 1000 nM
C[C@H](CCC(=O)N1CCCCO1)[C@H]1CC[C@H]2[C@@H]3CC=C4C[C@@H](O)CC[C@]4(C)[C@H]3CC[C@]12C [Example 34, (R)-4-((3S,8S,9S,10R,13R,14S,17R)-3-hydroxy-10,13-dimethyl-2,3,4,7,8,9,10,11,12,13,14,15,16,17-tetradecahydro-1H-cyclopenta[a]phenanthren-17-yl)-1-(1,2-oxazinan-2-yl)pentan-1-one]	250 to 1000 nM
CON(C(=O)CC[C@@H](C)[C@H]1CC[C@H]2[C@@H]3CC=C4C[C@@H](O)CC[C@]4(C)[C@H]3CC[C@]12C)C1CC1 [Example 36, (R)—N-cyclopropyl-4-((3S,8S,9S,10R,13R,14S,17R)-3-hydroxy-10,13-dimethyl-2,3,4,7,8,9,10,11,12,13,14,15,16,17-tetradecahydro-1H-cyclopenta[a]phenanthren-17-yl)-N-methoxypentanamide]	< 250 nM
C[C@H](CCC(=O)N(C)OC1CCC1)[C@H]1CC[C@H]2[C@@H]3CC=C4C[C@@H](O)CC[C@]4(C)[C@H]3CC[C@]12C [Example 39, (R)—N-cyclobutoxy-4-((3S,8S,9S,10R,13R,14S,17R)-3-hydroxy-10,13-dimethyl-2,3,4,7,8,9,10,11,12,13,14,15,16,17-tetradecahydro-1H-cyclopenta[a]phenanthren-17-yl)-N-methylpentanamide]	250 to 1000 nM
C[C@H](CCC(=O)N(C)OCC1CC1)[C@H]1CC[C@H]2[C@@H]3CC=C4C[C@@H](O)CC[C@]4(C)[C@H]3CC[C@]12C [Example 41, (R)—N-(cyclopropylmethoxy)-4-((3S,8S,9S,10R,13R,14S,17R)-3-hydroxy-10,13-dimethyl-2,3,4,7,8,9,10,11,12,13,14,15,16,17-tetradecahydro-1H-cyclopenta[a]phenanthren-17-yl)-N-methylpentanamide]	1000 to 10000 nM
C[C@H](CCC(=O)N1CC[C@H](CO)O1)[C@H]1CC[C@H]2[C@@H]3CC=C4C[C@@H](O)CC[C@]4(C)[C@H]3CC[C@]12C [Example 43, (R)-4-((3S,8S,9S,10R,13R,14S,17R)-3-hydroxy-10,13-dimethyl-2,3,4,7,8,9,10,11,12,13,14,15,16,17-tetradecahydro-1H-cyclopenta[a]phenanthren-17-yl)-1-((R)-5-(hydroxymethyl)isoxazolidin-2-yl)pentan-1-one]	> 10000 nM
CC[C@H]1NC[C@@H]2CON(C(=O)CC[C@@H](C)[C@H]3CC[C@H]4[C@@H]5CC=C6C[C@@H](O)CC[C@]6(C)[C@H]5CC[C@]34C)[C@@H]21 [Example 47, (R)-1-((3aS,6R,6aS)-6-ethylhexahydro-1H-pyrrolo[3,4-c]isoxazol-1-yl)-4-((3S,8S,9S,10R,13R,14S,17R)-3-hydroxy-10,13-dimethyl-2,3,4,7,8,9,10,11,12,13,14,15,16,17-tetradecahydro-1H-cyclopenta[a]phenanthren-17-yl)pentan-1-one]	1000 to 10000 nM
CC[C@@H]1NC[C@@H]2CON(C(=O)CC[C@@H](C)[C@H]3CC[C@H]4[C@@H]5CC=C6C[C@@H](O)CC[C@]6(C)[C@H]5CC[C@]34C)[C@@H]21 [Example 48, (R)-1-((3aS,6S,6aS)-6-ethylhexahydro-1H-pyrrolo[3,4-c]isoxazol-1-yl)-4-((3S,8S,9S,10R,13R,14S,17R)-3-hydroxy-10,13-dimethyl-2,3,4,7,8,9,10,11,12,13,14,15,16,17-tetradecahydro-1H-cyclopenta[a]phenanthren-17-yl)pentan-1-one]	> 10000 nM
C[C@H](CCC(=O)N1CCCCCO1)[C@H]1CC[C@H]2[C@@H]3CC=C4C[C@@H](O)CC[C@]4(C)[C@H]3CC[C@]12C [Example 56, (R)-4-((3S,8S,9S,10R,13R,14S,17R)-3-hydroxy-10,13-dimethyl-2,3,4,7,8,9,10,11,12,13,14,15,16,17-tetradecahydro-1H-cyclopenta[a]phenanthren-17-yl)-1-(1,2-oxazepan-2-yl)pentan-1-one]	250 to 1000 nM
CON(CC(C)C)C(=O)CC[C@@H](C)[C@H]1CC[C@H]2[C@@H]3CC=C4C[C@@H](O)CC[C@]4(C)[C@H]3CC[C@]12C [Example 67, (R)-4-((3S,8S,9S,10R,13R,14S,17R)-3-hydroxy-10,13-dimethyl-2,3,4,7,8,9,10,11,12,13,14,15,16,17-tetradecahydro-1H-cyclopenta[a]phenanthren-17-yl)-N-isobutyl-N-methoxypentanamide]	1000 to 10000 nM

Same assay, conditions: PathHunter NHR CHO cells, full-length human LXRβ and SRCP, chemiluminescent signal; read-out: LXRβ PPI

SMILES	EC50
CON(C)C(=O)CC[C@@H](C)[C@H]1CC[C@H]2[C@@H]3CC=C4C[C@@H](O)CC[C@]4(C)[C@H]3CC[C@]12C [Example 1, (R)-4-((3S,8S,9S,10R,13R,14S,17R)-3-hydroxy-10,13-dimethyl-2,3,4,7,8,9,10,11,12,13,14,15,16,17-tetradecahydro-1H-cyclopenta[a]phenanthren-17-yl)-N-methoxy-N-methylpentanamide]	250 to 1000 nM
C[C@H](CCC(=O)N1CCOCC1)[C@H]1CC[C@H]2[C@@H]3CC=C4C[C@@H](O)CC[C@]4(C)[C@H]3CC[C@]12C [Example 7, (R)-4-((3S,8S,9S,10R,13R,14S,17R)-3-hydroxy-10,13-dimethyl-2,3,4,7,8,9,10,11,12,13,14,15,16,17-tetradecahydro-1H-cyclopenta[a]phenanthren-17-yl)-1-morpholinopentan-1-one]	1000 to 10000 nM
CON(C(=O)CC[C@@H](C)[C@H]1CC[C@H]2[C@@H]3CC=C4C[C@@H](O)CC[C@]4(C)[C@H]3CC[C@]12C)C1CCC1 [Example 38, (R)—N-cyclobutyl-4-((3S,8S,9S,10R,13R,14S,17R)-3-hydroxy-10,13-dimethyl-2,3,4,7,8,9,10,11,12,13,14,15,16,17-tetradecahydro-1H-cyclopenta[a]phenanthren-17-yl)-N-methoxypentanamide]	1000 to 10000 nM
CON(CC1CC1)C(=O)CC[C@@H](C)[C@H]1CC[C@H]2[C@@H]3CC=C4C[C@@H](O)CC[C@]4(C)[C@H]3CC[C@]12C [Example 40, (R)—N-(cyclopropylmethyl)-4-((3S,8S,9S,10R,13R,14S,17R)-3-hydroxy-10,13-dimethyl-2,3,4,7,8,9,10,11,12,13,14,15,16,17-tetradecahydro-1H-cyclopenta[a]phenanthren-17-yl)-N-methoxypentanamide]	1000 to 10000 nM
C[C@H](CCC(=O)N1CC[C@@H](CO)O1)[C@H]1CC[C@H]2[C@@H]3CC=C4C[C@@H](O)CC[C@]4(C)[C@H]3CC[C@]12C [Example 42, (R)-4-((3S,8S,9S,10R,13R,14S,17R)-3-hydroxy-10,13-dimethyl-2,3,4,7,8,9,10,11,12,13,14,15,16,17-tetradecahydro-1H-cyclopenta[a]-phenanthren-17-yl)-1-((S)-5-(hydroxymethyl)isoxazolidin-2-yl) pentan-1-one]	250 to 1000 nM
